Values quoted from earlier work, collected in patent US20140242590A1, “FLT3 MUTATIONS ASSOCIATED WITH DRUG RESISTANCE IN AML PATIENTS HAVING ACTIVATING MUTATIONS IN FLT3” (THE REGENTS OF THE UNIVERSITY OF CALIFORNIA, priority 2011, published 2014).

Tested on: relapsed/refractory FLT3-ITD+ AML patients
Settings: interim analysis of 53 patients evaluable for efficacy; cited from earlier work

## CC(C)(C)c1cc(NC(=O)Nc2ccc(-c3cn4c(n3)sc3cc(OCCN5CCOCC5)ccc34)cc2)no1.Cl.Cl [AC220, N-(5-tert-butyl-isoxazol-3-yl)-N′-{4-[7-(2-morpholin-4-yl-ethoxy)imidazo[2,1-b][1,3]benzothiazol-2-yl]phenyl}urea dihydrochloride]
  composite complete remission (<5 percent bone marrow blasts) rate: 45%
